# “Also recorded” adds a separate entry of the source.
# Protein sequences, listed by entry. Tags and fused reporters are not part of them. Residues count along the entry.
# UniProt P00514, 1-81: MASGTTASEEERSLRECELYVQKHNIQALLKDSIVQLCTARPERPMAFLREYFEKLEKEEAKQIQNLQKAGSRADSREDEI
# What was measured:
# RIα D/D (a.a.#1-81) = target: T1, RIα D/D (a.a.#1-81) (Bos taurus, UniProt P00514); experiment: Ni-NTA pulldown with His-RIα D/D; type: binding, bovine
# T1 construct: made in house; host or cells: E. coli BL21(DE3); template pRSETB-RIα from Dr. Susan Taylor
# From the text: (§1) Most AHs are mono-specific to RIIα D/D except a few that are either RIα D/D-specific (Angelo and Rubin, 1998; Means et al., 2011; Welch et al., 2010) or dual specific, binding to both (Huang et al., 1997; Jarnaess et al., 2008). To test if hAsh2 AH can cross-react with PKA's D/D, we created constructs expressing the D/D domain and the flanking sequences from bovine RIα (a.a.#1-81) and mouse RIIα (a.a.#1-64). His-RIα D/D or His-RIIα D/D was co-expressed with GST-RSP396-180, which contains the AH (RSP3160-178) that bind RII in the overlay assay (Gaillard et al., 2001). […] In the eluate, the ratio of RSP396-180-RIα D/D was the lowest, followed by RSP396-180-RIIα D/D and then RSP396-180-RIIα D/D from RSP7, the de facto partner of RSP3. Although RSP396-180 in the extract was also the most concentrated when co-expressed with RSP7's RIIα, this likely is due to effective binding of RSP7's D/D, protecting GST-RSP396-180 from proteolysis, which occurred when GST-RSP396-180 was expressed by itself (not shown). Similarly, when co-expressed with GST-hAsh2593-623, RIα D/D and RIIα D/D were depleted in the flow through but few polypeptides, especially RIIα D/D, were present in the eluate (FIG. 12A, right panel, compare Extract, Post and Elute).
# Although both RIα D/D and Dpy-30 D/D have a common α0 helix (Wang et al., 2009), GST-hAsh2593-623 cross reacted with RIα D/D poorly. We wondered if this was due to disulfide bonds via the conserved cysteine residues in RIα D/D in oxidative states. To test this, the samples from repeated experiments were analyzed in the non-reducing SDS-PAGE. […] To test if the presence of a reducing agent would improve the association, Ni-NTA pulldown was conducted in the presence of 5 mM β-mercaptoethanol.
# To test if the 300 mM NaCl in all buffers for Ni-NTA affinity purification dissociated the cross-recognition, the NaCl concentration was decreased to 100 mM. […]
# [1] = target: T2, Dpy-30 D/D (a.a. #[…]) (Homo sapiens); experiment: Ni-NTA pulldown of GST-hAsh2 peptides with His-Dpy-30 D/D; type: binding; conditions: His-Dpy-30 D/D a.a. #[…] co-expressed
# T2 construct: His-Dpy-30 D/D (a.a. #49-99) was co-expressed with GST-hAsh2593-623; made in house; host or cells: E. coli BL21(DE3)
# From the text: To differentiate if the interaction is via the Dpy-30 domain or the N-terminal fragment, His-Dpy-30 D/D (a.a. #49-99) was co-expressed with GST-hAsh2593-623 (FIG. 11C). To define the N-terminal end of Dpy-30 D/D binding site in hAsh2, W599 in the first potential ΦΦXX motif was mutated into P to disrupt helicity, an approach to abolish D/D-binding (Carr et al., 1982; Burns-Hamuro et al., 2003). […] Thus, the site that directly binds Dpy-30 D/D resides within hAsh2600-617 that is after W599 and contains four ΦΦXX-like motifs, even though an acidic residue occupies a supposedly hydrophobic position in the last motif, VETE (SEQ ID NO:35). The affinity may be further enhanced by adjacent sequences (Burns-Hamuro et al., 2003; Banky et al., 2003).
# All expression constructs were transformed or co-transformed into BL21(DE3) cells. The colonies were selected based on the antibiotic-resistant gene in each plasmid. The cultures were induced with 1 mM IPTG overnight at 18° C. The cell pellet from a 5-ml culture was resuspended in 750-μl lysis buffer supplemented with Complete Mini EDTA-free protease inhibitor cocktail tablets (Roche) and the suspension was sonicated on ice using Branson digital Sonifier until clarified (Emerson Industrial Automation). The sonicated mixtures were centrifuged at 4° C., 12,000 rpm for 25 min. […]
# [2] = target: T3, RIIα D/D (a.a.#[…]) (Mus musculus, S2G); experiment: Ni-NTA pulldown with His-RIIα D/D; type: binding
# T3 construct: made in house; host or cells: E. coli BL21(DE3); template pRSETB-RIIα from Dr. Susan Taylor
# From the text: as §1, with “Elute). […]” for “Elute).”
# [3] = test system: Dpy-30 D/D, RIα D/D, RIIα D/D; experiment: Glutathione Sepharose purification of GST-hAsh2593-623 from mixtures of two D/D domains; type: binding; conditions: equal volumes of extracts mixed, excessive RIα and RIIα
# Procedure: To test if the 300 mM NaCl in all buffers for Ni-NTA affinity purification dissociated the cross-recognition, the NaCl concentration was decreased to 100 mM. […] To directly compare the association, all fusion proteins were expressed separately, and equal volume of the extracts containing RIα D/D, Dpy-30 D/D, and GST-hAsh2593-623 were mixed together and then with Glutathione Sepharose. A parallel experiment was conducted with RIα D/D, RIIα D/D and GST-hAsh2593-623.
# All expression constructs were transformed or co-transformed into BL21(DE3) cells. The colonies were selected based on the antibiotic-resistant gene in each plasmid. The cultures were induced with 1 mM IPTG overnight at 18° C. The cell pellet from a 5-ml culture was resuspended in 750-μl lysis buffer supplemented with Complete Mini EDTA-free protease inhibitor cocktail tablets (Roche) and the suspension was sonicated on ice using Branson digital Sonifier until clarified (Emerson Industrial Automation). The sonicated mixtures were centrifuged at 4° C., 12,000 rpm for 25 min. The supernatant or combinations of supernatants as indicated were incubated with ˜100 μl Ni-NTA (Qiagen or Clontech) or Glutathione Sepharose 4B (Amersham Biosciences) for 1 hour at room temperature. The matrix was subsequently washed as instructed by manufacturers, unless indicated otherwise.
# Dpy-30 (Homo sapiens) = target: T4, Dpy-30 (Homo sapiens); experiment: Ni-NTA pulldown of GST-hAsh2 peptides with His-Dpy-30; type: binding; set-up: key to co-purified with Dpy-30: “+” or “−” indicates if the peptides were or were not evidently co-purified with Dpy-30; “+” or “−” indicates if the peptides were or were not evidently co-purified with Dpy-30
# T4 construct: Dpy-30 fragments, full length or a.a.#49-99, were amplified using purchased IMAGE cDNA clone #4081996 as a template; made in house; host or cells: E. coli BL21(DE3)
# From the text: To test this, we performed pull down assays for His-Dpy-30 and GST-hAsh2593-623. The human Ash2 fragment contains a helix with two typical and three atypical ΦΦXX motifs. The hAsh2 DNA was fused downstream to GST DNA by PCR and the product was cloned into an expression vector. Three clones—#9 and #14 with the expected in-frame fusion and #6 with an out-of-frame fusion—were expressed in bacteria. Their extract was mixed with equal volume of bacterial extract with His-Dpy-30; and the mixture was subjected to Ni-NTA purification. […] Thus hAsh2593-623 interacts with Dpy-30 specifically.
# Table 3 illustrates the protein sequences of hAsh2's C-terminal region (hAsh2593-623) and its variants, where “+” or “−” indicates if the peptides were or were not evidently co-purified with Dpy-30. The shorter fusion protein GST-hAsh2593-617 that terminated right after the last possible ΦΦXX-like motif, VETE (SEQ ID NO:35), in the helix was also co-purified with His-Dpy-30 (FIG. 11B, arrow and double arrowheads), no matter expressed separately or co-expressed. Both polypeptides were depleted in the flow through of Ni-NTA matrix (Post in FIG. 11B) and retained in the eluate.
# All expression constructs were transformed or co-transformed into BL21(DE3) cells. The colonies were selected based on the antibiotic-resistant gene in each plasmid. The cultures were induced with 1 mM IPTG overnight at 18° C. […]
# [4] = NaCl decreased from 300 mM to 100 mM
sequence,measurement,setting,value
"PMSDMGWGAVVEHTLADVLYHVETEVDGRRS (GST fusion; listed as Homo sapiens) [hAsh2593-623, human Ash2 C-terminal fragment a.a; 593-623, expressed and tested as a GST fusion protein]",pulldown with RIα D/D in the presence of a reducing agent,RIα D/D (a.a.#1-81); 5 mM β-mercaptoethanol,did not increase the pulldown
same,co-purification with RIα D/D at lower salt,RIα D/D (a.a.#1-81); [4],not
same,co-purification with His-RIα D/D,"RIα D/D (a.a.#1-81); Ni-NTA, 300 mM NaCl buffers, listed as GST-hAsh2593-623",poorly; also recorded: A small fraction
same,co-purification with the Dpy-30 domain,[1],still co-purified
same,co-purification with RIIα D/D at lower salt,[2]; [4],enhance the co-purification
same,co-purification with His-RIIα D/D,"[2]; Ni-NTA, 300 mM NaCl buffers",negligible
same,D/D domain pulled down from mixed extracts (selectivity),[3],only Dpy-30 domain was obviously pulled down
same,co-purified with Dpy-30,"Dpy-30 (Homo sapiens); GST-fused hAsh2 peptides, Ni-NTA pulldown, Coomassie-stained SDS-PAGE",+
same,co-purification with His-Dpy-30,"Dpy-30 (Homo sapiens); full-length His-Dpy-30, Ni-NTA, result in words",co-purified
